Results published in patent US6399654B1, “Biflavanoids and derivatives thereof as antiviral agents” (priority 1995, dated 2002).

Settings: mouse, in vivo, ip, 75 mg/kg/day

NC(=O)c1ncn([C@@H]2O[C@H](CO)[C@@H](O)[C@H]2O)n1 [Ribavirin, ribavirin, reference compound]
Toxicity Controls Surv/Total (female, BALB/c): 3/3 | Toxicity Controls Mean Weight Change: -0.5 g
